Experimental data taken from publication PMC2875304 (Experimental parasitology, 2010).

Test system: Trypanosoma cruzi (M/HOM/AR/74/CA-I CL72)
Format: cell-based
Conditions: read-out: IC50B; peptide B alone; 50% reduction in untreated-culture growth after 96 hours; triplicate wells, three independent trials

Compound: CC[C@H](C)[C@H](NC(=O)CN)C(=O)NCC(=O)N[C@@H](C)C(=O)N[C@H](C(=O)N[C@@H](CC(C)C)C(=O)N[C@@H](CCCCN)C(=O)N[C@H](C(=O)N[C@@H](CC(C)C)C(=O)N[C@H](C(=O)N[C@H](C(=O)NCC(=O)N[C@@H](CC(C)C)C(=O)N1CCC[C@H]1C(=O)N[C@@H](C)C(=O)N[C@@H](CC(C)C)C(=O)N[C@H](C(=O)N[C@@H](CO)C(=O)N[C@@H](Cc1c[nH]c2ccccc12)C(=O)N[C@H](C(=O)N[C@@H](CCCCN)C(=O)N[C@@H](CCCNC(=N)N)C(=O)N[C@@H](CCCCN)C(=O)N[C@@H](CCCNC(=N)N)C(=O)N[C@@H](CCC(N)=O)C(=O)N[C@@H](CCC(N)=O)C(N)=O)[C@@H](C)CC)[C@@H](C)CC)[C@@H](C)O)[C@@H](C)O)C(C)C)C(C)C [Melittin, melittin]
- IC50: 800 nM
